Earlier results, collected in patent US20100135984A1, “Anti-inflammatory compositions and methods” (Searete LLC, a limited liability corporation of the State …, priority 2008, published 2010).

Chains of the proteins cited; added tags and fusions are not shown. Residues count along the entry.
UniProt P10721, 26-976: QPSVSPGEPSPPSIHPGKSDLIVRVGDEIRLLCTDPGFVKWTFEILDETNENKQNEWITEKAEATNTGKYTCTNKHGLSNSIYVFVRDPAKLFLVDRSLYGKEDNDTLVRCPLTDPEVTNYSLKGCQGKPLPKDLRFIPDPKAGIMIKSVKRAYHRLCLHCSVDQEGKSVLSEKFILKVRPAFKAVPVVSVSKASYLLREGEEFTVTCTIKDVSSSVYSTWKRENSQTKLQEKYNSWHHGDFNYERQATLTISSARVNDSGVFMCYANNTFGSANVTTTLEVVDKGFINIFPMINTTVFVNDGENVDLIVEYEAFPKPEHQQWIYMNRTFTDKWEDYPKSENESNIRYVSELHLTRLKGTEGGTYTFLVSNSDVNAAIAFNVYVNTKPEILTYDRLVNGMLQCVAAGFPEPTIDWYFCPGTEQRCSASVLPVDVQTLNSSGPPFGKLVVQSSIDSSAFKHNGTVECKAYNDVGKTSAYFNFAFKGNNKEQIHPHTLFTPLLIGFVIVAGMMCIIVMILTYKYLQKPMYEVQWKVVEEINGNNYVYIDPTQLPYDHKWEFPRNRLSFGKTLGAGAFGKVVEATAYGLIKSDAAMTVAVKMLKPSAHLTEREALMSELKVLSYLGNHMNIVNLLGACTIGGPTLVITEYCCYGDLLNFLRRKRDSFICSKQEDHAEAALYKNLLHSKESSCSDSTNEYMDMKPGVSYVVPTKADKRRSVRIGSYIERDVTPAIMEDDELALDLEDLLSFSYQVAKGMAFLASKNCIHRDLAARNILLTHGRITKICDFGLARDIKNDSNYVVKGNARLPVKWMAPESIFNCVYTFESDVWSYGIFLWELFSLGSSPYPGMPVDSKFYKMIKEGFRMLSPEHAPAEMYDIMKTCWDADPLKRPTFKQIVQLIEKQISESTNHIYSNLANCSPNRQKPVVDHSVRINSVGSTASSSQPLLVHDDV
UniProt P09619, 33-1106, species assumed: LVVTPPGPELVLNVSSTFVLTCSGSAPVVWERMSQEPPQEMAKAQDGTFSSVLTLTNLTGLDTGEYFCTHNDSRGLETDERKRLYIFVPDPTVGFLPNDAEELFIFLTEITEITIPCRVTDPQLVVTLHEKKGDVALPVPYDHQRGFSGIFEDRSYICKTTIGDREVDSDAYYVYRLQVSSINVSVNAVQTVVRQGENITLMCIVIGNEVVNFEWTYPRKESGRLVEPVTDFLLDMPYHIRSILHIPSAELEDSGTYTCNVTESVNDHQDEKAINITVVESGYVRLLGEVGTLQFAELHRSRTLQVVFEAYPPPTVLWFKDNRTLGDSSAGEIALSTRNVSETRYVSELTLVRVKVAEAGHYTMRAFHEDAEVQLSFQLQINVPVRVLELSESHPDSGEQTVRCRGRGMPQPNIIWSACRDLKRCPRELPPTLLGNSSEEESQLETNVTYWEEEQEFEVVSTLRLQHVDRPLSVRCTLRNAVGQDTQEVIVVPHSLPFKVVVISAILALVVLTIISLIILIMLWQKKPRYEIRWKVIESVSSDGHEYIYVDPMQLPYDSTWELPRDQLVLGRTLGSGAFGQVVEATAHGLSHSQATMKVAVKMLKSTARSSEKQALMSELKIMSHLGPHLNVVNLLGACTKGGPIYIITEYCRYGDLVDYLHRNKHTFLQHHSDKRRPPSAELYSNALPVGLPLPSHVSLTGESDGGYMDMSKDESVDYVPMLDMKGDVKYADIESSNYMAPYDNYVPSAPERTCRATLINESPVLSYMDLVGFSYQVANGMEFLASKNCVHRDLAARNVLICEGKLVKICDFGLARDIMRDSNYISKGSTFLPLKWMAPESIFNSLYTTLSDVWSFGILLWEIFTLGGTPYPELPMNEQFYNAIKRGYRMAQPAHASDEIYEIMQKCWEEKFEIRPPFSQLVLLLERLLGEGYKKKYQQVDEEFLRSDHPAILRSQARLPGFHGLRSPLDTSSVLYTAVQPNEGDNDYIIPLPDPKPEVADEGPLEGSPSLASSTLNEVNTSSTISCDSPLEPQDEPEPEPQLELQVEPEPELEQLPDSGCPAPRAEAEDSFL

What was measured:
[1] = target: c-Kit (Homo sapiens, UniProt P10721); details: at nanomolar concentrations
[2] = target: PDGFRβ (Homo sapiens, UniProt P09619); details: at nanomolar concentrations

Structure (SMILES): Cc1nc(Nc2ncc(C(=O)Nc3c(C)cccc3Cl)s2)cc(N2CCN(CCO)CC2)n1.O [dasatinib, N-(2-chloro-6-methylphenyl)-2-[[6-[4-(2-hydroxyethyl)-1-piperazinyl]-2-methyl-4-pyrimidinyl]amino]-5-thiazolecarboxamide, monohydrate]
- inhibition of c-Kit [1]: inhibits
- inhibition of PDGFRβ [2]: inhibits
